Measured values taken from patent publication EP4548971A1, “1,4-BENZOTHIAZEPINES AND RELATED COMPOUNDS WITH CYCLOPROPANOL GROUPS AS MULTI-TARGETED DRUGS” (Georg-August-Universität Göttingen Stiftung Öffentlichen …, priority 2023, dated 2025).

The chains behind the UniProt entries cited, without tags or fusion partners.
UniProt E9Q401, whole entry: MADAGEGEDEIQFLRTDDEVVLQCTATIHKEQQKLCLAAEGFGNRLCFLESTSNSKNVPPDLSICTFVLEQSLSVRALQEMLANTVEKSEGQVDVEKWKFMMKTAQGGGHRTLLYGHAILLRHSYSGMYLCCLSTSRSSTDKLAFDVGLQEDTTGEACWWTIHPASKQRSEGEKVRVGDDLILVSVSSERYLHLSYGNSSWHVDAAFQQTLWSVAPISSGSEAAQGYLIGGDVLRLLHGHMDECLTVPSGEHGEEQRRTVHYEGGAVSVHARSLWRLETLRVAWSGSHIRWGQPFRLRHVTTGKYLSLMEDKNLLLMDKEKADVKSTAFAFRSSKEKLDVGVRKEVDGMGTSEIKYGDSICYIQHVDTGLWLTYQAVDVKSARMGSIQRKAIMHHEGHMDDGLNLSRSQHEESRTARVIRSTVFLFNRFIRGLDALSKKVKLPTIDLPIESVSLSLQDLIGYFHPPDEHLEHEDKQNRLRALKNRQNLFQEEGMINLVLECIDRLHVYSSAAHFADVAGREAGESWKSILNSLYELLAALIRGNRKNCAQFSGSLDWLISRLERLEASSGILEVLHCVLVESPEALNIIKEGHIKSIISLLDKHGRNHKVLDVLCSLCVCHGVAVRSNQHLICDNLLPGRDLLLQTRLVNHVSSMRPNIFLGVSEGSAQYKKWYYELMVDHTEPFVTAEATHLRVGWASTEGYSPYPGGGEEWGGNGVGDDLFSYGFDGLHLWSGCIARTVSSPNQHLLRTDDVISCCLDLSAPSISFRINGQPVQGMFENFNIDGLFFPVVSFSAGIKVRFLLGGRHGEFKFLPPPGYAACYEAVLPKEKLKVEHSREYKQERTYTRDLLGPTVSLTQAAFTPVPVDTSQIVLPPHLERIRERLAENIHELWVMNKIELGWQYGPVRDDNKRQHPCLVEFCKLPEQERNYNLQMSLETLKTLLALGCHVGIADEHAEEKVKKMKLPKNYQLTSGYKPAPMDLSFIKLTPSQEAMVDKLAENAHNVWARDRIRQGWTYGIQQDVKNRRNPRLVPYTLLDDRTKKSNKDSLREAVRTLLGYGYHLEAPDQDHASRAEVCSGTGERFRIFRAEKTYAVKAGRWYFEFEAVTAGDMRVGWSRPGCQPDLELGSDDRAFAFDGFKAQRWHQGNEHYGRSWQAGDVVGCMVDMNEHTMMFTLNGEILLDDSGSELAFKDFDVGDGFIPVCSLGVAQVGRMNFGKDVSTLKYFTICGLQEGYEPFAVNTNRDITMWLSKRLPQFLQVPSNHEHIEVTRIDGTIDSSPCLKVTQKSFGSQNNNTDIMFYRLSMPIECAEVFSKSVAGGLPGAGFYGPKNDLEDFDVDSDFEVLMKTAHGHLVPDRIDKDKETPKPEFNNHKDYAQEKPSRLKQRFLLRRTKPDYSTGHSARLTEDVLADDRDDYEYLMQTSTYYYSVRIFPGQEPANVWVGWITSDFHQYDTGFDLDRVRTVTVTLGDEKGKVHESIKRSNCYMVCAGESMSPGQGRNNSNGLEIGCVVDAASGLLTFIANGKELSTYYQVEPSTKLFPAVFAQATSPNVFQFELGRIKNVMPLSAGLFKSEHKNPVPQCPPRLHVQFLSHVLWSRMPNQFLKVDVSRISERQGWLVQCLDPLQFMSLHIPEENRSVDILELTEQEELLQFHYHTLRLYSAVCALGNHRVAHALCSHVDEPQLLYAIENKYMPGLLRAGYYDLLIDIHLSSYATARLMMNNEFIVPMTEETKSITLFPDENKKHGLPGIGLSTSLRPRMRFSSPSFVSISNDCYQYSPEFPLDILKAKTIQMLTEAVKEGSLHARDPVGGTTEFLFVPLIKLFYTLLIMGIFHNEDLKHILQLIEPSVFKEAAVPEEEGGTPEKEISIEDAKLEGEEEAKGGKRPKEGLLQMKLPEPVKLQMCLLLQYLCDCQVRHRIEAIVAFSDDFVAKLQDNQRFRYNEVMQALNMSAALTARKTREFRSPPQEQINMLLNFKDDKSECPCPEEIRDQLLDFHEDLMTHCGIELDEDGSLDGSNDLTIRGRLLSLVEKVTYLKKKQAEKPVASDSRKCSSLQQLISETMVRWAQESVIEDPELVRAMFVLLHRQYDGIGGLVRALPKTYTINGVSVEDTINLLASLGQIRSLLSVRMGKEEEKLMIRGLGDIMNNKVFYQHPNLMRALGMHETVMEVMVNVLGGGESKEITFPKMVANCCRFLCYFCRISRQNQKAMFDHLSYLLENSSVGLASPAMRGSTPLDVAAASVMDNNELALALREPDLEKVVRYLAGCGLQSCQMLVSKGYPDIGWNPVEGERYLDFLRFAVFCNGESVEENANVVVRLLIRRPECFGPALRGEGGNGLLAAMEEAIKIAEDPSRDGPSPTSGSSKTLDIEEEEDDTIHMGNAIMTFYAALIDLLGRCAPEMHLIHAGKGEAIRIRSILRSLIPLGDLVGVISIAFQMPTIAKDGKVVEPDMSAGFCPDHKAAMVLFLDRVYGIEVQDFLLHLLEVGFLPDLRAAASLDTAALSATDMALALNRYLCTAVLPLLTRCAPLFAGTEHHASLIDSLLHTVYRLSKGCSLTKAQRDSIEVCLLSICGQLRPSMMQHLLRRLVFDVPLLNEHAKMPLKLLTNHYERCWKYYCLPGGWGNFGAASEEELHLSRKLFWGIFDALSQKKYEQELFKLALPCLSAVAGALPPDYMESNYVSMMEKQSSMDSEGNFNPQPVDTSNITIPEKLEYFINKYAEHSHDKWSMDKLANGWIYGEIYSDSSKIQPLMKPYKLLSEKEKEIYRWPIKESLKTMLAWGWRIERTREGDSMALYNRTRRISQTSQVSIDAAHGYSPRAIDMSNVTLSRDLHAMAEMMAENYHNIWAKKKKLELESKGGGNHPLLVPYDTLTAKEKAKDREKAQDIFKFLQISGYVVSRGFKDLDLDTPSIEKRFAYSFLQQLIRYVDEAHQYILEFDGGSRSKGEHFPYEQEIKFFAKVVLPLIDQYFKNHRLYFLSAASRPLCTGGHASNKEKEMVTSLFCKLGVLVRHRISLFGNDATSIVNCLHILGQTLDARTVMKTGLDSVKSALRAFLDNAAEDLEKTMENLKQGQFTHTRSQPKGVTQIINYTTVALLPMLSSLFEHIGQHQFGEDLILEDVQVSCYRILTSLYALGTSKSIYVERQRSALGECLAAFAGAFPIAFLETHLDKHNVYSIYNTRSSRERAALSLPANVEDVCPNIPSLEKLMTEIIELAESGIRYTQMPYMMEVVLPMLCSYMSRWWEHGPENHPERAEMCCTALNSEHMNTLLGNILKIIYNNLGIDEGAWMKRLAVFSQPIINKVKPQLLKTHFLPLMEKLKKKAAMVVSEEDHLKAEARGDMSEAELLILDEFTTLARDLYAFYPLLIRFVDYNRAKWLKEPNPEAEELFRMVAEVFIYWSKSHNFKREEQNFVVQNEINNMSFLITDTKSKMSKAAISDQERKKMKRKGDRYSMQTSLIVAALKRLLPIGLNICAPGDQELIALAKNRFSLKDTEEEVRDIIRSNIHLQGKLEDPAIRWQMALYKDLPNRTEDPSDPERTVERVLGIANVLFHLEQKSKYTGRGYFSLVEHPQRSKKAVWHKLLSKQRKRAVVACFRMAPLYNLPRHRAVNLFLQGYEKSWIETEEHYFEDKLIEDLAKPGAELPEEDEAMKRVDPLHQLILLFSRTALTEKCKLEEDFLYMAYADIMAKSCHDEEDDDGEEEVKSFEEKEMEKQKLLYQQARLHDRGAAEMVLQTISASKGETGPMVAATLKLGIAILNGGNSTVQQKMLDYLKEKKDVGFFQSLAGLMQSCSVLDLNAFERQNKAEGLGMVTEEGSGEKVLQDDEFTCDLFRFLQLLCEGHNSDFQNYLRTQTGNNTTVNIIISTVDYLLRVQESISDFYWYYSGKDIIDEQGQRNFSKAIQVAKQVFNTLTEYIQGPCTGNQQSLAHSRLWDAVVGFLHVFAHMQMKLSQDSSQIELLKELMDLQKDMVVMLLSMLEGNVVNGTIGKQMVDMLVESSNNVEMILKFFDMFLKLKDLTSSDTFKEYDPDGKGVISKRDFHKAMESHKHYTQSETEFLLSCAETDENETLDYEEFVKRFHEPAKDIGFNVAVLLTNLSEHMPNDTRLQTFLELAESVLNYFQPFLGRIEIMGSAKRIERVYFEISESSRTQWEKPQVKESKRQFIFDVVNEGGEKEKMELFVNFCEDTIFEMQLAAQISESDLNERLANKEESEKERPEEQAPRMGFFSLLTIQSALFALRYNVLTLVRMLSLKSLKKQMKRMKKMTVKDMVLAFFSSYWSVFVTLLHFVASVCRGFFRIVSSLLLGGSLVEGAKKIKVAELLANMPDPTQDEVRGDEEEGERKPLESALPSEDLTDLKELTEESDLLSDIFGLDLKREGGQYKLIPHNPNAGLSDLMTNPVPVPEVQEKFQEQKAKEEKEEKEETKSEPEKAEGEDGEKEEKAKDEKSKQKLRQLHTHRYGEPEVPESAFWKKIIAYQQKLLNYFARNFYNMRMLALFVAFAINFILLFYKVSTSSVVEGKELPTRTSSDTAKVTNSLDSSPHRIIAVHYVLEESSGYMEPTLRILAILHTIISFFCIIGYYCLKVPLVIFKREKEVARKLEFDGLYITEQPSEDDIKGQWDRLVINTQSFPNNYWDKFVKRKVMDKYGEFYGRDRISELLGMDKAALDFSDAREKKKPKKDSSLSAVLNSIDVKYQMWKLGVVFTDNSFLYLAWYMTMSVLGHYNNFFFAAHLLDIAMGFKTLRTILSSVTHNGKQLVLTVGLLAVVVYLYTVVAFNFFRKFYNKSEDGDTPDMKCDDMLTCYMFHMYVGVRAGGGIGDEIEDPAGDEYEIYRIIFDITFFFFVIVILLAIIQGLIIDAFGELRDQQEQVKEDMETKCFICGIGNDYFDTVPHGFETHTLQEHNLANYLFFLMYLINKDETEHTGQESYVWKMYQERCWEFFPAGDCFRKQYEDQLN

Molecular target: T1, WT RyR2 (Mus musculus, UniProt E9Q401)
T1 construct: expressed in transfected cells
Experiment: Time-lapse [Ca2+]ER assay (RyR2 R-CEPIA1er assay) in HEK-293 cells
Type: cell-based
Design: RyR2 effect class: key to the marks not given beside the values
Method: HEK-293 cells stably expressing R-CEPIA1er and WT RyR2 (generous gift from Takashi Murayama, Juntendo University School of Medicine, Tokyo) were cultured in Dulbecco's Modified Eagle medium (DMEM, Thermo Fisher Scientific, Darmstadt, Germany) supplemented with 10% fetal bovine serum (FBS, Thermo Fisher Scientific, Darmstadt, Germany), 0.9% Penicillin/Streptomycin (Merck KGaA, Darmstadt, Germany), 15ug/mL Blasticidine (Invivogen, Toulouse, France), 100 µg/mL Hygromycin (Merck KGaA, Darmstadt, Germany) and 400 µg/mL G418 (Thermo Fisher Scientific, Darmstadt, Germany) in a humidified 5% COz incubator at 37 °C. […]
The fluorescent plate reader [Ca^2+]ER assay was performed according to the slightly modified protocol of Murayama & Kurebayashi [T. Murayama, N. Kurebayashi, Assays for Modulators of Ryanodine Receptor (RyR)/Ca(2+) Release Channel Activity for Drug Discovery for Skeletal Muscle and Heart Diseases. […] After the cells were inducted with Doxycycline for 24 h, changes in ER calcium concentrations [Ca^2+]ER were measured on a multiwell plate reader TECAN Spark 20M at 37 °C. […] The time courses were recorded in each well. Fluorescence was evoked by 560 nm excitation wavelength and collected in a bottom-read mode at 610 nm. Data was recorded every 10 s, exposure - 20 flashes, excitation bandwidth - 20 nm, emission bandwidth - 20 nm. […]

With `COc1ccc2c(c1)CN(C)CCS2` [Compound S107, reference compound] the RyR2 effect class (25 µM in RyR2 R-CEPIA1er assay) was “+++” and the “effect on [Ca^2+]ER (R-CEPIA1er fluorescence), in words” value (1 mM, vs. 0.1 v/v% DMSO) was “increase in R-CEPIA1er fluorescence”.
